Values quoted from earlier work in patent EP4035684A1, “AFFINITY ILLUDOFULVENE CONJUGATES” (AF Chemical LLC, priority 2019, dated 2022).

Test system: NCI 60 cell line panel
Conditions: human, nci 60 cell lines; cited from earlier work

For CC1=C2C(=C[C@@](C)(CO)[C@@H]2O)C(=O)[C@](C)(O)C12CC2 [Illudin S], which CC50 is on record?
The CC50 was 511 nM.
